Measured values taken from PubChem BioAssay AID493191 (Broad Institute, 2011).

Tested on: MALME3 melanoma viability, CellTiter-Glo luminescence, 24 h
Assay: growth inhibition of MALME3 cells – cell-based, CellTiter-Glo, cherry-picked, orthogonal assay for MITF inhibitor project, dose response (AID 493191)

C1CCC(C(CC2CCCCN2)C2CCCCC2)CC1 (stereo unspecified)
AC50: 17.5 µM
